Our source for the Ki values is ChEMBL document CHEMBL1153596, “Design, synthesis, and characterization of 6beta-naltrexol analogs, and their selectivity for in vitro opioid receptor subtypes” (Bioorg Med Chem Lett, 2009).

Chains of the proteins cited; added tags and fusions are not shown. Lines headed by an entry give the natural chain unless they say otherwise; changes in a name come on top.
UniProt P41145: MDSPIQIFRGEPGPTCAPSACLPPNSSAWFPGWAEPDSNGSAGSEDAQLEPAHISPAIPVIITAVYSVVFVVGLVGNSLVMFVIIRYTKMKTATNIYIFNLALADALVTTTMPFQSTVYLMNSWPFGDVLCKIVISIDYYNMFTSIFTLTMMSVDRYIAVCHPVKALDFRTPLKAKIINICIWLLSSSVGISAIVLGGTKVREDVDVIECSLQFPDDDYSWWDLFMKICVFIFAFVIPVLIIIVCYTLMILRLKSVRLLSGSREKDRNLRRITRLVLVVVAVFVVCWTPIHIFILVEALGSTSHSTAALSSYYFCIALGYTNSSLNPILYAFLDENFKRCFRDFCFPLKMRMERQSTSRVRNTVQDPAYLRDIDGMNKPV
UniProt P41143, whole entry: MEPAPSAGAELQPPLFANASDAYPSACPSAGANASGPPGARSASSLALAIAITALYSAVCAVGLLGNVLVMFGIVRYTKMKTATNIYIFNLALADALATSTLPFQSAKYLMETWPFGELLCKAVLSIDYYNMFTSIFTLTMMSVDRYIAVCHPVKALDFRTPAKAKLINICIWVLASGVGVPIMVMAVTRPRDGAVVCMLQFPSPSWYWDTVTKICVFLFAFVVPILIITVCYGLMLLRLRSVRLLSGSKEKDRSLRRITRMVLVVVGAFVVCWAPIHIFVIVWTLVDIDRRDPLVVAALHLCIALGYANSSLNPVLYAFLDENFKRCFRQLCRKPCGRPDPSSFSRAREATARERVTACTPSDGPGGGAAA
UniProt P35372, whole entry: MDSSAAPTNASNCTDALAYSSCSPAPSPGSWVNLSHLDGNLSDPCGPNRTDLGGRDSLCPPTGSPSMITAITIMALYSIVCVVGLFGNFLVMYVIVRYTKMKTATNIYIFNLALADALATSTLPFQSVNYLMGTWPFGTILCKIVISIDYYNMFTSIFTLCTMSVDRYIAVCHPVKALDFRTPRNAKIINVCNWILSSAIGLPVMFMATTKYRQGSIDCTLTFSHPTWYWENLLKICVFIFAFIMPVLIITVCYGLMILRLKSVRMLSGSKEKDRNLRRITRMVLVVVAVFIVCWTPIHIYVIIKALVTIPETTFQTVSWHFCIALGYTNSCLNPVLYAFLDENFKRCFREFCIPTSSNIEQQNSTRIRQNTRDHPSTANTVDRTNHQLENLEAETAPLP

Format in all cases: cell-based
For test [1], the target named is Kappa-type opioid receptor (Homo sapiens, UniProt P41145). The test can be described thus: Displacement of [3H]U69,593 from human kappa opioid receptor expressed in CHO cells by liquid scintillation counting. On the technique in general: Displacement assays read how much labelled ligand stays bound in the presence of the test substance.
The target of test [2] is Delta-type opioid receptor (Homo sapiens, UniProt P41143). The test can be described thus: Displacement of [3H]DADLE from human delta opioid receptor expressed in CHO cells by liquid scintillation counting.
A further test addresses Mu-type opioid receptor (Homo sapiens, UniProt P35372). The test can be described thus: Displacement of [3H]DAMGO from human mu opioid receptor expressed in CHO cells by liquid scintillation counting.

As a reminder, the Ki is a measure of affinity in units of concentration, obtained from inhibition or displacement. A high value points to a looser hold on the target. Consider `Oc1ccc2c3c1O[C@H]1[C@H](O)CC[C@@]4(O)[C@@H](C2)N(CC2CC2)CC[C@]314`, for which the Ki in test [1] came to 7.42 nM; in test [2], 213 nM; at Mu-type opioid receptor, 2.12 nM.
